Earlier results on one molecule are cited in PMC7188706 (Cancer Chemotherapy and Pharmacology, 2020).

In the data set the test system is patients with known EGFR mutations. Particulars: cited from earlier work.

`COc1cc2ncnc(Nc3ccc(F)c(Cl)c3)c2cc1OCCCN1CCOCC1` [gefitinib]: the tolerability entry (erlotinib 450 mg every 3 days or gefitinib 1000 mg every 4 days) is on record as “well tolerated”. Where the note is “gefitinib 1000 mg every 4 days”, the “median PFS” value is listed as 6 months and the response rate is recorded as 21%.
